Source: ChEMBL document CHEMBL3856233, “Identification of (R)-(2-Chloro-3-(trifluoromethyl)phenyl)(1-(5-fluoropyridin-2-yl)-4-methyl-6,7-dihydro-1H-imidazo[4,5-c]pyridin-5(4H)-yl)methanone (JNJ 54166060), a Small Molecule Antagonist of the P2X7 receptor” (J Med Chem, 2016)
Values belong to the compound of their own block, whether it stands above or below them.

Protein sequences, listed by entry. Tags and fused reporters are not part of them. Lines headed by an entry give the natural chain unless they say otherwise; changes in a name come on top.
UniProt Q99572: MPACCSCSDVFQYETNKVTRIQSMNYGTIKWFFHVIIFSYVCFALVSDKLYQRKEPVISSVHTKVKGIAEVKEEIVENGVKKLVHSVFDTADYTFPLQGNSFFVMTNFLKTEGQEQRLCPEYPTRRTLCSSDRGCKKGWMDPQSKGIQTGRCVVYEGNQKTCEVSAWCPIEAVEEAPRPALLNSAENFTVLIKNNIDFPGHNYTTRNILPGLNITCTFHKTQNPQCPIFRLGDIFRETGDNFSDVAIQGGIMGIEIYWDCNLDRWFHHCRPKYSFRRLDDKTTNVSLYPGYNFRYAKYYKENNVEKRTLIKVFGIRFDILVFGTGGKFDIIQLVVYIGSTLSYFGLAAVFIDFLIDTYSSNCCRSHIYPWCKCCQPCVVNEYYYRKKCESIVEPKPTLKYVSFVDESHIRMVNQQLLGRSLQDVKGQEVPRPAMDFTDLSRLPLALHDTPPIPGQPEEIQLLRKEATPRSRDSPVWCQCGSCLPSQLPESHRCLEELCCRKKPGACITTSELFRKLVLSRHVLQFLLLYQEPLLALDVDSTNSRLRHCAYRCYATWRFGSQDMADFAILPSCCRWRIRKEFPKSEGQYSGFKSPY
UniProt P08684, whole entry: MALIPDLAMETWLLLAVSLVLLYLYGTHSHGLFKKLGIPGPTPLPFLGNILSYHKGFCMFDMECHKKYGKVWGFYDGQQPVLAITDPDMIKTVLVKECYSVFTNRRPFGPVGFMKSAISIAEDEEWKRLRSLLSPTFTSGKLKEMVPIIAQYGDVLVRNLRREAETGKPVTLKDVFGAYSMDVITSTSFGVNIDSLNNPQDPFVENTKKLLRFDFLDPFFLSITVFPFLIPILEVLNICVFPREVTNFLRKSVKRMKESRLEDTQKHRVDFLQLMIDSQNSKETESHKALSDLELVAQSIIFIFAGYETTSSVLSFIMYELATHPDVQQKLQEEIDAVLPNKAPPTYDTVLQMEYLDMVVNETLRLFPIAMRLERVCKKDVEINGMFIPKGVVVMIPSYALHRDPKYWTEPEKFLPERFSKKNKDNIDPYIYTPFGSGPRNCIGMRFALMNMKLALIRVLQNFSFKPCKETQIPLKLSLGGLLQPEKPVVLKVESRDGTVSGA

Key:
P2X purinoceptor 7 [1] = molecular target: T1, P2X purinoceptor 7 (Rattus norvegicus, UniProt Q64663); assay: Antagonist activity at recombinant rat P2X7 receptor expressed in human 1321N1 cells assessed as inhibition of Bz-ATP-induced Ca2+ flux preincubated for 30 mins followed by agonist addition measured after 180 sec by calcium-4 dye based FLIPR assay; format: cell-based
T1 sequence (Q64663 whole entry): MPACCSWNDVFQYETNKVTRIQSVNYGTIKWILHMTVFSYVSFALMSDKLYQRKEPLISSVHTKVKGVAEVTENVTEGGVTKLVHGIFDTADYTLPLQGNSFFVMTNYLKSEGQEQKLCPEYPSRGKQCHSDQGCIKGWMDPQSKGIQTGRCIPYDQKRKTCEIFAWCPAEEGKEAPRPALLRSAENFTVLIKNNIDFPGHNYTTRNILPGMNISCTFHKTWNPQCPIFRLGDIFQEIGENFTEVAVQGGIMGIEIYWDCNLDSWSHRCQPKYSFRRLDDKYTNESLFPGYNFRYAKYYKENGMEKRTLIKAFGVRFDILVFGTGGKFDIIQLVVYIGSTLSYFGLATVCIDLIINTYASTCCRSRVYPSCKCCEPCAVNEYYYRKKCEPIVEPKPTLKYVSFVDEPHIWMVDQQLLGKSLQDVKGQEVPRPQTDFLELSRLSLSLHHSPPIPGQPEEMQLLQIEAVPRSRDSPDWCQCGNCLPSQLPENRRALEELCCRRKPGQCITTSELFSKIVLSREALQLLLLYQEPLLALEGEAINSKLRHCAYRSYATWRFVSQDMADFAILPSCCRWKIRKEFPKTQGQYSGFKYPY

P2X purinoceptor 7 [2] = molecular target: T2, P2X purinoceptor 7 (Homo sapiens, UniProt Q99572)
P2X purinoceptor 7 [3] = molecular target: T1, P2X purinoceptor 7; assay: biochemical
P2X purinoceptor 7 [4] = molecular target: T2, P2X purinoceptor 7; assay: Displacement of [3H]-(S)-7-(2-chloro-3-(trifluoromethyl)benzyl)-6-methyl-3-(pyrazin-2-yl)-6,7-dihydro-[1,2,4]triazolo[4,3-a]pyrazin-8(5H)-one from recombinant human P2X7 receptor expressed in human 1321N1 cell membranes after 1 hr; format: cell-based
Cytochrome P450 3A4 [5] = molecular target: T3, Cytochrome P450 3A4 (Homo sapiens, UniProt P08684); assay: Inhibition of CYP3A4 in human liver microsomes using midazolam as substrate after 15 mins by HPLC analysis; format: ADME, tissue-based
Cytochrome P450 3A4 [6] = molecular target: T3, Cytochrome P450 3A4; assay: Inhibition of CYP3A4 in human liver microsomes using midazolam as substrate assessed as reduction in 1-OH-midazolam formation by LC/MS/MS analysis; format: ADME, tissue-based
P2X purinoceptor 7 [7] = molecular target: T2, P2X purinoceptor 7; assay: Antagonist activity at recombinant human P2X7 receptor expressed in human 1321N1 cells assessed as inhibition of Bz-ATP-induced Ca2+ flux preincubated for 30 mins followed by agonist addition measured after 180 sec by calcium-4 dye based FLIPR assay; format: cell-based

IC50 (P2X purinoceptor 7 [1]): > 10000 nM
Compound: O=C(c1ccc(Cl)cc1Cl)N1CCc2c(ncn2-c2ccc(F)cn2)C1

Compound: C[C@@H]1c2ncn(-c3ccc(F)cn3)c2CCN1C(=O)c1cccc(C(F)(F)F)c1Cl
IC50 (P2X purinoceptor 7 [2]): 92 nM
Ki (P2X purinoceptor 7 [3]): 7 to 8 nM
Ki (P2X purinoceptor 7 [4]): 7 nM
IC50 (Cytochrome P450 3A4 [5]): 2000 nM
IC50 (Cytochrome P450 3A4 [6]): 2200 nM

IC50 (P2X purinoceptor 7 [7]): 5 nM
Compound: CC1c2ncn(-c3ccccc3)c2CCN1C(=O)c1cccc(C(F)(F)F)c1Cl (centres undefined)

IC50 (P2X purinoceptor 7 [7]): 10 nM
Compound: CC1c2ncn(-c3ncc(F)cn3)c2CCN1C(=O)c1cccc(C(F)(F)F)c1Cl (centres undefined)

Compound: CC1c2ncn(-c3ccc(F)cn3)c2CCN1C(=O)c1cccc(C(F)(F)F)c1Cl (centres undefined)
IC50 (P2X purinoceptor 7 [7]): 14 nM
